This passage reports CC50 results from patent publication EP2769723A1, “Compounds for use in inhibiting HIV capsid assembly” (priority 2013, dated 2014).

This series concerns TZM cells. The series is described as follows: Cytotoxicity by MTT test. Type of series: cell-based. As to conditions: Table 5, 2880 min, tested form: HCl. As for the experimental part: Cytotoxicity of selected hits tested in the assay with NL4.3 infected cells was determined by MTT test. TZM cells were seeded on the previous day on 96-well plate in the density 5 x 10^3 cells per well. The tested compounds were added in different concentrations, but the DMSO concentration never exceeded 1 % DMSO. As controls were used cells treated only with 1 % DMSO (non-toxic concentration) and cells treated with 5 % DMSO (toxic concentration). 20 µl of the CellTiter 96 Aqueous One substrate (Promega) was added to the 100 µl of culture media 48 hrs after the compounds addition and the color development was quantified 4 hrs later by measuring the absorbance at 490 nm on Saphire reader. Compounds were consider non-cytotoxic (at given concentrations) when the measured values were higher than 80 % of the value of 1 % DMSO treated cells.
On the technique in general: Formazan colour is commonly taken as a measure of viable cells.

SMILES strings stand for the structures.

As to `c1cncc(-c2nc(Nc3ccc4[nH]nnc4c3)c3ccccc3n2)c1` [AMR.325], the 50% cytotoxic concentration (CC50) is 150 µM.

Usually CC50 stands for the concentration at which the toxic effect on the cells reaches its halfway point.
